Results: PubChem BioAssay AID1347418 (Sanford-Burnham Center for Chemical Genomics, 2020)
The entries are a selection whose mix differs from that of the whole data set. Calls of active or inactive are those of the source.

The chains behind the UniProt entries cited, without tags or fusion partners. Where a name states a change or a piece, a line headed by the entry shows the natural chain unless it says otherwise.
UniProt O00391: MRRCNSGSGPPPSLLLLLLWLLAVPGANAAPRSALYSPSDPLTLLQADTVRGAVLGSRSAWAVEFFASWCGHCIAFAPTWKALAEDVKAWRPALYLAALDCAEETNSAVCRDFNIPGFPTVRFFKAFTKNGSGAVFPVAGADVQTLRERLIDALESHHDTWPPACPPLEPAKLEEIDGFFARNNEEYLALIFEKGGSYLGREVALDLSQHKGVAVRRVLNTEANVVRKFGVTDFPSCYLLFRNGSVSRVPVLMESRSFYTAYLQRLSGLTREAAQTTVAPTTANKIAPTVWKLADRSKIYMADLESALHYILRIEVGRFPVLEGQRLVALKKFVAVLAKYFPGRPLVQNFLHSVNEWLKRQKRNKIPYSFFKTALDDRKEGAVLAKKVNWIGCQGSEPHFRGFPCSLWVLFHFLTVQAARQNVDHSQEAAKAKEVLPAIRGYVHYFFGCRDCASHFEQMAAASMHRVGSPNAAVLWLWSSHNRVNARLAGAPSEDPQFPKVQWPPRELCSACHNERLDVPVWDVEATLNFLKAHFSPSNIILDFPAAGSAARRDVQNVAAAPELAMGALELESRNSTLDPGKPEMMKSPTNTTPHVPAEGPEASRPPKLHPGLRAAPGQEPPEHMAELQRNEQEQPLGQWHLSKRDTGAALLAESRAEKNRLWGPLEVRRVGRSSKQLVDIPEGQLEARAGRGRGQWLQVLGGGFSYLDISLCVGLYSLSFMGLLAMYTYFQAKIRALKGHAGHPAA

Molecular target: Sulfhydryl oxidase 1 (Homo sapiens) (UniProt O00391)
Assay: QSOX1 enzyme inhibitors, primary screen, biochemical, ROS-Glo H2O2 luminescence, HTS (AID 1347418)
Settings: recombinant QSOX1, ROS-Glo H2O2 luminescence; at 12.5 µM; active compounds read high; active = any value above zero

Row | SMILES | inhibition
1 | CN(C(=O)Cc1ccc(Cl)c(Cl)c1)[C@H]1CCCC[C@@H]1N1CCCC1 | active: 1.1%
2 | CN(C(=O)Cc1ccc(Cl)c(Cl)c1)[C@@H]1CCCC[C@@H]1N1CCCC1 | inactive: -3.2%
3 | CN(C(=O)Cc1ccccc1)[C@@H]1CC[C@]2(CCCO2)C[C@H]1N1CCCC1 | inactive: -0.6%
4 | CN(C(=O)Cc1ccc(Cl)c(Cl)c1)[C@@H]1CC[C@]2(CCCO2)C[C@H]1N1CCCC1 | active: 1%
5 | CN(CCCl)Cc1cc(Cl)c(NC2=NCCN2)c(Cl)c1 | inactive: -2.2%
